Data: PubChem BioAssay AID1032 (The Scripps Research Institute Molecular Screening Center, 2008)
The entries are a selection whose mix differs from that of the whole data set. Some of these compounds have results that are not shown, active ones among them. The source made the active and inactive calls. Rule as the data show it: active = activation above about 22%; inactive = the rest.

By UniProt entry, the sequences of proteins in these tests, tags left out. Residues count along the entry.
UniProt P37231, 232-505 limits assumed: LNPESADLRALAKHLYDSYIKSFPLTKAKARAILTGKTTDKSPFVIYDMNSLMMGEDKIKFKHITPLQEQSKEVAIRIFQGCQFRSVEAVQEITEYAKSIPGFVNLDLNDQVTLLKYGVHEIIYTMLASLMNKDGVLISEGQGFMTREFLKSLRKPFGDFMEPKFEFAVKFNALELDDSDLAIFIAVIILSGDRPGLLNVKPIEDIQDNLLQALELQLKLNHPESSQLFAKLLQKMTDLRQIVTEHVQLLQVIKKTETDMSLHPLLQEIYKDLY
UniProt Q15596, whole entry partner: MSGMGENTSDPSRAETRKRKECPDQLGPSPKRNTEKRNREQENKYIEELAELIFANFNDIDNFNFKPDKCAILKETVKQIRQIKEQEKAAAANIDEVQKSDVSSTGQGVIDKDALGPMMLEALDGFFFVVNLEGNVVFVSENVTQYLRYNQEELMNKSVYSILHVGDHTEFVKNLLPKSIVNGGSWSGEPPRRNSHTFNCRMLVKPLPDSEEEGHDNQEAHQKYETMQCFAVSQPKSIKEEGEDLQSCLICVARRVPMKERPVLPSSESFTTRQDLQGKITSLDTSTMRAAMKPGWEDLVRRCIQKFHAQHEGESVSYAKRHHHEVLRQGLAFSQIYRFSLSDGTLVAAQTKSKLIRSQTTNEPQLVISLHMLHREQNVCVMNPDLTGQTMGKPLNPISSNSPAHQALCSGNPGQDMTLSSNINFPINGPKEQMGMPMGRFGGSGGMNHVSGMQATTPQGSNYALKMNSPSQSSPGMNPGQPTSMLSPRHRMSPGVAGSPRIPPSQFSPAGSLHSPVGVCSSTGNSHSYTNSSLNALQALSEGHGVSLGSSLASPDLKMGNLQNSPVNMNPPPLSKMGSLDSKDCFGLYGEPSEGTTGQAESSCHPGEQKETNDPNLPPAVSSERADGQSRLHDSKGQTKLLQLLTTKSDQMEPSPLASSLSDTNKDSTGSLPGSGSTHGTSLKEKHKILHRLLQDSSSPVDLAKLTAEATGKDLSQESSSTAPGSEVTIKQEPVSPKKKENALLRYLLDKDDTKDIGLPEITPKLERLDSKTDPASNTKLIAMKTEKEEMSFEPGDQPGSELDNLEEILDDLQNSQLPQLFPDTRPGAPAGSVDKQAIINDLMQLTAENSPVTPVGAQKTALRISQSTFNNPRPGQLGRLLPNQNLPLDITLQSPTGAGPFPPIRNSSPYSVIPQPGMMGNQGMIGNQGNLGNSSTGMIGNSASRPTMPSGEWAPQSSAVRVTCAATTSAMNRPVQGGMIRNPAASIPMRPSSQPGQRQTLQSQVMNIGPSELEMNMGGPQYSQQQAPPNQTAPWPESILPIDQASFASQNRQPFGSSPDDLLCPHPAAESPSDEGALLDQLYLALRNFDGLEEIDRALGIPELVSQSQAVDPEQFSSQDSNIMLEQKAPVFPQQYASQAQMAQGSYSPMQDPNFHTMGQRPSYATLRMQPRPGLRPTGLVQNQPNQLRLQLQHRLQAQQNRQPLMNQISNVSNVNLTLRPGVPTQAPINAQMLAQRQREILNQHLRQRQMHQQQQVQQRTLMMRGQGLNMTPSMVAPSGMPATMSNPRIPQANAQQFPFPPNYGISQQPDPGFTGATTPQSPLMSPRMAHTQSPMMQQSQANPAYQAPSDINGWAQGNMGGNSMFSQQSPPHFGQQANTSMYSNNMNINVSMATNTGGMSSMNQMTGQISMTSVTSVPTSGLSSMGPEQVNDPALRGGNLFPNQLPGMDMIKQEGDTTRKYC

What follows are compounds tested against Peroxisome proliferator-activated receptor gamma (Homo sapiens) (UniProt P37231) (assay: compounds enhancing SRC-2 coactivator binding to PPARgamma – biochemical, HTS, primary screen (AID 1032;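 also: 0% = vehicle and 100% = reference agonist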)). Details: PPARgamma LBD-SRC-2 recruitment, at 8 µM, stronger effect = higher value.
In the case of `C=CCN1CCN(CCOC(=O)C(O)(c2ccccc2)c2ccccc2)CC1`, the activation is reported as inactive: 3.32%. In the case of `CCN1CCCC(OC(=O)C2(O)c3ccccc3C=Cc3ccccc32)C1` (centres undefined), the activation is reported as inactive: 1.8%. For `Cc1ccccc1C(=O)NCC1(N2CCCCC2)CCCCC1`, the activation was inactive: 7.16%. `CN(C)C1CCCC1OC(=O)C(O)(c1ccccc1)c1ccccc1` (centres undefined) was tested, and the activation was inactive: -1.12%. For `CC(C)N1C(=O)CC2(CCN(CCOC(=O)C(O)(c3ccccc3)c3ccccc3)CC2)C1=O`, the activation was inactive: -4.42%. With `O=C(NCC1(N2CCCCC2)CCCCC1)c1cc([N+](=O)[O-])ccc1Cl` the activation was inactive: 3.05%. In the case of `CN(C)c1cccc(C(=O)NCC2(N(C)C)CCCCC2)c1`, the activation is reported as inactive: 4.5%. In the case of `O=C(OC1CN2CCC1CC2)C(CO)(c1ccccc1)c1ccccc1` (centres undefined), the activation is reported as inactive: 8.46%. For `COc1cccc(C(=O)NCC2(N3CCCCC3)CCCCC2)c1`, the activation was inactive: -6.41%.
